Laboratory results from patent publication US20050249702A1, “(1R,2S,5S)-N-[(1S)-3-amino-1-(cyclobutylmethyl)-2,3-dioxopropyl]-3-[(2S)-2-[[[(1,1-dimethylethyl)amino]carbonyl]amino]-3,3-dimethyl-1-oxobutyl]-6,6-dimethyl-3-azabicyclo[3.1.0]hexane-2-carboxamide as inhibitor of hepatitis C virus NS3/NS4a serine protease” (SCHERING CORPORATION, priority 2004, published 2005).

Chains of the proteins cited; added tags and fusions are not shown. Residues count along the entry.
UniProt P27958, 1027-1657: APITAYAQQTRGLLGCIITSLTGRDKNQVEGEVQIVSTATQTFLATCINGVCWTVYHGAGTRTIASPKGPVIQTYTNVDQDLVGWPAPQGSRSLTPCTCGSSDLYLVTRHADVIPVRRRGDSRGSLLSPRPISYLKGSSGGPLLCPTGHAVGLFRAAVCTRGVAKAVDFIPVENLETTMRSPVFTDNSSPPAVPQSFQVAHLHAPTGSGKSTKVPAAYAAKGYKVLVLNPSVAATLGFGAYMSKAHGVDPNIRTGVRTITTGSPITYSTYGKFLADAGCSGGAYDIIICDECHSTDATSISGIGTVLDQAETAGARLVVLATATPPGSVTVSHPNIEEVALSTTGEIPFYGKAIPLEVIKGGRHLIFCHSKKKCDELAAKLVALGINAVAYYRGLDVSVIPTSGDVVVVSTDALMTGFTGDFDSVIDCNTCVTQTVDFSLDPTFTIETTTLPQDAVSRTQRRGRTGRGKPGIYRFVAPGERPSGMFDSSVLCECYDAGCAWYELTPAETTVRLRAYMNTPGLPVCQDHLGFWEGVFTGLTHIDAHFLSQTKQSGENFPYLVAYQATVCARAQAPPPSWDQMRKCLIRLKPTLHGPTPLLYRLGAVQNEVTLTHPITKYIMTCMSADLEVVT
UniProt P27958, 1658-1711: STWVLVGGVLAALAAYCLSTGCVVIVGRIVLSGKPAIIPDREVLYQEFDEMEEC

Target: Recombinant heterodimeric HCV NS3/NS4A protease (strain 1a) (Hepatitis C virus genotype 1a, UniProt P27958)
Assay: Spectrophotometric assay for HCV protease inhibitory activity (chromogenic ester substrates)
Assay type: biochemical
Details: 30° C., pH 6.5 assay buffer; read-out: Ki* (NS3 Serine Protease Inhibition)

Row | Compound | Ki [nM]
1 | CC(C)(C)NC(=O)N[C@H](C(=O)N1C[C@H]2[C@@H]([C@H]1C(=O)N[C@H](CC1CCC1)C(=O)C(N)=O)C2(C)C)C(C)(C)C [Formula 2] | 3000
2 | CC(C)(C)NC(=O)N[C@H](C(=O)N1C[C@H]2[C@@H]([C@H]1C(=O)N[C@@H](CC1CCC1)C(=O)C(N)=O)C2(C)C)C(C)(C)C [Formula 3, (1R,2S,5S)-N-[(1S)-3-amino-1-(cyclobutylmethyl)-2,3-dioxopropyl]-3-[(2S)-2-[[[(1,1-dimethylethyl)amino]carbonyl]amino]-3,3-dimethyl-1-oxobutyl]-6,6-dimethyl-3-azabicyclo[3.1.0]hexane-2-carboxamide] | 23 ± 5
